# Measurements taken from PubChem BioAssay AID686954 (Sanford-Burnham Center for Chemical Genomics, 2013).
# Chains of the proteins cited; added tags and fusions are not shown.
# UniProt Q96SD1, whole entry: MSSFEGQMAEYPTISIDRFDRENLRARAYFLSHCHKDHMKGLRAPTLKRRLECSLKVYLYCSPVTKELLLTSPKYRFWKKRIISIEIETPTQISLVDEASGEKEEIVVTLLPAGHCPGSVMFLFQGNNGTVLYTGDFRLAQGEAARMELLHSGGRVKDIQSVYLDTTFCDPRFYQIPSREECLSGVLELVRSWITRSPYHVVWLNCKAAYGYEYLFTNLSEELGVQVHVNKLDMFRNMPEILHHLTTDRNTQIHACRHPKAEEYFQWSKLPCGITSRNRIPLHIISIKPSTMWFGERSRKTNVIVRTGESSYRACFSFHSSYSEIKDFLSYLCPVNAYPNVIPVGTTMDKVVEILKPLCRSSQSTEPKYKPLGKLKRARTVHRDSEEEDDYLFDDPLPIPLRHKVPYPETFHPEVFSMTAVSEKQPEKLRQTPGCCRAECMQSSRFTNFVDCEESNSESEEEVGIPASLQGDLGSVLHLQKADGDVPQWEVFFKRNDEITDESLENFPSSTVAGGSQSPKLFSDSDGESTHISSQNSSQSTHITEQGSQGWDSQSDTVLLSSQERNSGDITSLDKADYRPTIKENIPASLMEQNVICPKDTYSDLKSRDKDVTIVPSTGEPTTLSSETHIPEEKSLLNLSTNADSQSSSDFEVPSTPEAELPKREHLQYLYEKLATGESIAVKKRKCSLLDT
# This is a selection; strong and weak results do not stand in their true shares. Active and inactive are the calls of the source.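 The calls were made as follows: active = at 10 µM dose, at least 30% inhibition, measured as corrected fluorescence normalized to stimulator and neutral control wells; inactive = the rest.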
# Target: Protein artemis (Homo sapiens) (UniProt Q96SD1)
# Assay: blockers of Artemis DNA hairpin overhang cleavage – biochemical, fluorescence intensity, FAM/BHQ-1 hairpin substrate, primary screen (AID 686954)
# Conditions: recombinant Artemis, quenched FAM hairpin cleavage fluorescence; at 10 µM; hits give high values
row,Compound,inhibition
1,CN(C)CCOC(=O)C(O)(c1ccccc1)C1CCCCC1 (stereo not drawn),inactive: -5.45%
2,CP(=O)(Nc1ccc2c(c1)OCCO2)Oc1ccccc1 (stereo not drawn),inactive: -0.42%
3,Cc1ccccc1NP(C)(=O)Nc1ccccc1C,inactive: -7.74%
4,CP(=O)(Oc1ccccc1)N1CCOC1=O (stereo not drawn),inactive: 0.22%
5,COc1ccccc1OP(C)(=O)Nc1c(C)n(C)n(-c2ccccc2)c1=O (stereo not drawn),inactive: -2.94%
6,COc1ccccc1OP(C)(=O)Nc1ccc(C)c(C)c1 (stereo not drawn),inactive: -5.46%
7,CCc1ccc(OP(C)(=O)O)cc1,inactive: 1.3%
8,CP(=O)(Nc1ccccn1)Oc1ccccc1 (stereo not drawn),inactive: -4.8%
9,Cc1ccc(NP(C)(=O)Oc2ccccc2)c(C)c1 (stereo not drawn),inactive: 0.88%
10,COc1ccccc1OP(C)(=O)Nc1ccc(C)cc1 (stereo not drawn),inactive: -0.3%
11,CP(=S)(Nn1cnnc1)Oc1ccccc1 (stereo not drawn),inactive: 0.81%
12,CCOP(C)(=S)SCC(=O)NC(C)C(=O)O (stereo not drawn),inactive: -8.85%
13,Cc1ccc(C)c(NP(C)(=O)Oc2ccccc2)c1 (stereo not drawn),inactive: -4.98%
